Measurements reported in US20060216726A1, “Method for optimizing thiopurine efficacy and toxicity using mass spectrometry” (Prometheus Laboratories Inc., priority 2004, published 2006).

What was measured:
[1] = human, in vivo
[2] = patients with inflammatory bowel disease, azathioprine; cited from earlier work

RBC level, TPMT heterozygous genotype [1] [pmol/8×10^8 RBCs]	RBC level, TPMT homozygous wild type genotype [1] [pmol/8×10^8 RBCs]	Average RBC level, TPMT homozygous mutant genotype [1] [pmol/8×10^8 RBCs]	RBC levels reached / detection, TPMT homozygous mutant genotype [1]	Substance	Threshold associated with hepatotoxicity [2] [pmol/8×10^8 cells]	Threshold associated with leukopenia [2] [pmol/8×10^8 cells]
808±144	2679±107			6-methyl-mercaptopurine nucleotide [6-MMPN]	> 5700	
408±23	202±3	2681±406	above 1000 pmol/8×10^8 RBCs	6-thioguanine nucleotide [6-TGN]		> 400
